# Experimental data reported in US9023842B2, “Benzodiazepine bromodomain inhibitor” (priority 2009, dated 2015).
# System: Balb/c male mice given a lethal dose of LPS
# Settings: 15 mg/kg LPS i.p., compound 10 mg/kg intravenously ninety minutes later
structure (smiles),measurement,setting,value
"CCNC(=O)C[C@@H]1N=C(c2ccc(Cl)cc2)c2cc(OC)ccc2-n2c(C)nnc21 [Example 1, 2-[(4S)-6-(4-Chlorophenyl)-1-methyl-8-(methyloxy)-4H-[1,2,4]triazolo[4,3-a][1,4]benzodiazepin-4-yl]-N-ethylacetamide]","Animals surviving at 4 days, percent",,(52%)
same,Numbers of animals surviving at 4 days (summed across multiple repeat experiments),survivors/total,24/56
